Nrf2 activator = Nrf2 pathway activation; AID 624171; AREc32 ARE-luciferase reporter (MCF7-derived line), luminescence, 24 h; actives 0.31% (n = 410,000); Potency, µM (top dose mostly 46.1 µM), inactives show at the highest dose activation, usual class: activators; note: potency is the fitted concentration of half-maximal effect; % of control where 0% means no effect; nearly all actives have a fitted effect of over 65% in size
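Cells of the AREc32 ARE-luciferase line are plated in OPTI-MEM containing 5% FBS and left overnight at 37 deg C. Compounds are pinned in, incubation continues 24 hr, and firefly luciferase signal is then measured.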
Nrf2 inh = inhibitors of Nrf2 signaling. actives 2.1% (n = 360,000). AID 504444. A549 ARE-Fluc reporter, luciferase luminescence, 18-24 h. Potency, µM (series often up to 46 µM), inactives show at the highest dose activity change, negative = inhibition, most hits filed as inhibitors; note: potency is the fitted concentration of half-maximal effect; % is set by controls: 0 for no effect and ±100 for the full control effect; nearly all actives have a fitted effect of over 60% in size
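Concentration-response testing used A549 ARE_Fluc cells at 5000 cells/well. Following an 18-24 h compound incubation, viability was read by fluorescence (Ex 405/Em 525) and luciferase output by luminescence.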
TCR activator = activators of T cell receptors; 330,000 tested, under 10 active; primary human leukocytes, anti-CD3, IL-2 HTRF, 48 h; Potency, µM (series often up to 9.22 µM), for the others: top-dose activation of IL-2 secretion, most hits filed as activators; AID 504894; note: % of control where 0% means no effect
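HTRF read-out of IL-2 secretion: europium cryptate donor excited at 320nm, d2 acceptor emission at 665nm. Cells were primary human leukocytes incubated 48 hr with compounds and a-CD3 beads, supplying TCR signal only.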
miR-21 reporter = raises the signal of a miR-21 reporter | HeLa miR-21 FLuc reporter, luciferase, 48 h | Potency, µM (doses to about 38.3 µM), for the others: at the highest dose reporter change, positive = more light | 340,000 tested, under 10 active | AID 2288; active = well fitted rising curve with a large enough effect; inconclusive = small, poorly fitted or top-dose-only effect; inactive = no such curve, though single readings can be large or run the other way;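 also: % of control where 0% means no effect; miR-21 action dims this reporter so a rising signal means less miR-21 action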
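HeLa cells stably expressing CMV-driven firefly luciferase with a downstream miR-21 binding sequence, endogenously expressing miR-21, were treated with titrations (up to about 40uM final) for 48 hours at 37 degree Celsius. Luciferase luminescence was read after lysis.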
ClpP mod = qHTS Assay for Activators of ClpP; actives 1.9% (n = 340,000); Potency, µM (doses to about 57.5 µM), for inactives: at the top dose activity change, negative = active; purified B. subtilis ClpP, FRET peptide cleavage, 20 min; active = well fitted falling curve with a large enough effect; inconclusive = small, poorly fitted or top-dose-only effect; inactive = no such curve, though single readings can be large or run the other way; note: potency is the fitted concentration of half-maximal effect; the source files actives as falling curves though it sought activators and does not explain the sign; nearly all actives have a fitted effect of over 65% in size
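Buffer: 100 mM Tris/HCl pH8, 100 mM KCl, 0.05% low protease BSA, 2.5% glycerol, 0.01% Tween-20. ClpP 10 microg/mL final; 20 min RT; delta FRET normalized to ADEP and DMSO controls.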
A549 tox = counter-screen for Nrf2 inhibitors: cytotoxicity in A549 cells; A549 ARE-Fluc cells, CellTiter-Fluor viability, 18-24 h; Potency, µM (series often up to 46 µM), without a hit: at the highest dose activity change, negative = cytotoxicity, hits mostly inhibitors; actives 0.16% (n = 390,000); note: potency is the fitted concentration of half-maximal effect; % is set by controls: 0 for no effect and ±100 for the full control effect
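A549 ARE_Fluc cells in 5% FBS OPTI-MEM were exposed to compounds in concentration-response for 18-24 h at 37 deg C. Viability was read by CellTiter-Fluor fluorescence (Ex 405/Em 525) after 30 min, before the luciferase read.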
Numbers without * were called inactive; ? = inconclusive; . = no result; ! = not active in a repeat; [ ] = dose if it differs, or a comment. In the library only some 3.7% were active in any assay of this set; here they are far more common. Unless noted, calls come from the whole dose curve; as a rule, active = well fitted curve in the direction sought with a large enough effect; inconclusive = small, poorly fitted or top-dose-only effect, or another doubt; inactive = no such curve, though single readings can be large; an effect the other way counts as inactive or inconclusive.

[1] CC(C)(C)OC(=O)N1CCC(CC2CC(c3ccc(Cl)cc3)=NO2)(C(=O)NCC2CCCCC2)CC1 (configuration not stated)
[2] CC(C)(C)c1ccc2c(c1)OC(C(=O)N/N=C\c1ccc(-c3cccc(C(=O)O)c3)o1)CO2 (configuration not stated)
[3] CC(C)(C)c1ccc2c(c1)OC(C(=O)N/N=C\c1ccccn1)CO2 (configuration not stated)
[4] Cc1ccc(NC(=O)c2c(C)oc3c2C2=NCCN2C=N3)cc1F
[5] Cc1ccc(C(C(=O)NC2CCCC2)N(C(=O)Cc2cccs2)c2ccc(C)c(C)c2)o1 (configuration not stated)
[6] Cc1cc(NC(=O)CCC(=O)N(c2cccc(F)c2)C(C(=O)NC2CCCC2)c2ccc(C)o2)no1 (configuration not stated)
[7] Cc1ccc(N(C(=O)CCl)C(C(=O)NC2CCCCC2)c2cccnc2)cc1C (configuration not stated)
[8] Cc1ccc(C)c(N(C(=O)Cc2cccs2)C(C(=O)NC2CCCC2)c2ccc(C)o2)c1 (configuration not stated)
screen / no.,1,2,3,4,5,6,7,8
Nrf2 inh,-39%,9%,16µM*,-12%,18µM*,7%,-10%,-1%
TCR activator,3%,-2%,11%[46.1 µM],.,0%,1%,9%,.
A549 tox,-14%,1%,-10%,0%,?,3%,-7%,-8%[1.84 µM]
Nrf2 activator,2%,-1%,0%,0%,2%,0%,14µM*,-1%
ClpP mod,-4%,.,-2%,-5%,-1%,28µM*,-1%,1%
miR-21 reporter,-28%,-41%,-4%,1%,12%,-3%,29%,-10%

[9] C=CCN1CC[C@@H](O)C(=C)S1(=O)=O
[10] COCCCNC(=O)c1cc(-c2ccc(OC)cc2)nc2n[nH]c(-c3ccc(Cl)cc3)c12
[11] COc1ccc(-c2cc(C(=O)NCCc3ccccc3)c3c(-c4ccccc4)[nH]nc3n2)cc1
[12] COc1ccc(-c2cc(C(=O)NCCc3ccccc3)c3c(-c4ccc(Cl)cc4)[nH]nc3n2)cc1
[13] COC(=O)c1ccc(NC(=O)CN(C2CCCCC2)S(C)(=O)=O)cc1
[14] COc1ccc(NC(=O)CN(C2CCCCC2)S(C)(=O)=O)cc1OC
[15] CS(=O)(=O)Nc1cccc(-c2cc(F)c(S(=O)(=O)N3CCN(S(=O)(=O)c4ccc5c(c4)OCCO5)CC3)cc2F)c1
[16] Cc1cc(C)cc(N(CC(=O)Nc2ccccc2-c2ccccc2)S(=O)(=O)c2ccccc2)c1
screen / no.,9,10,11,12,13,14,15,16
Nrf2 inh,.,-17%,-6%,23µM*,?,21%,-22%,2%
TCR activator,.,.,.,.,-2%,-8%,.,2%[46.1 µM]
A549 tox,.,0%,?,?,14%,1%,0%,-3%
Nrf2 activator,.,5%,1%,-1%,0%,2%,.,-1%
ClpP mod,0%,4%,13µM*,4%,0.71µM*,-1%,.,-2%
miR-21 reporter,.,3%,-4%,8%,12%,-3%,.,-4%

[17] Cc1cc(C)cc(N(CC(=O)N/N=C/c2ccncc2)S(=O)(=O)c2ccccc2)c1
[18] Cc1ccc(NC(=O)Cn2c(SCc3ccc(F)cc3)nc3cccnc32)cc1F
[19] Cc1ccn2c(-c3csc(NCc4ccco4)n3)c(C)nc2c1
[20] COc1ccc(-c2csc(NCc3ccco3)n2)cc1C
[21] O=C1c2ccccc2NC(c2cccc(F)c2)N1Cc1ccccc1 (configuration not stated)
[22] O=C1c2ccccc2NC(c2cccc(F)c2)N1Cc1ccco1 (configuration not stated)
[23] O=C1c2ccccc2NC(c2ccc(O)cc2)N1Cc1ccco1 (configuration not stated)
[24] Cc1ccc(C2Nc3ccccc3C(=O)N2Cc2ccco2)cc1 (configuration not stated)
screen / no.,17,18,19,20,21,22,23,24
Nrf2 inh,-4%,?,23µM*,?,?,?,?,-23%
TCR activator,2%[46.1 µM],.,2%,-4%,-4%,2%,4%,3%
A549 tox,8%,1%,-17%,-4%,-1%,?,-5%,-23%
Nrf2 activator,1%,7%,4%,5%,0%,6%,0%,5%
ClpP mod,6.3µM*,?,-8%,1%,4%,18µM*,32µM*!,25µM*
miR-21 reporter,-3%,-25%,18%,-64%,-3%,-2%,2%,10%

[25] Cc1nn(CC(=O)OCC(=O)Nc2cccc(S(N)(=O)=O)c2)c(C)c1[N+](=O)[O-]
[26] CCOC(=O)/C=C1\CN(Cc2ccc(OC)cc2)S(=O)(=O)c2ccc(C(F)(F)F)cc21
[27] CC(=O)c1ccc(NC(=O)C(C)O/N=C(\N)c2ccccc2)cc1 (configuration not stated)
[28] Cc1ccc2nc(COc3ccccc3NC(=O)C(C)(C)C)cc(=O)n2c1
[29] CCN(CC)c1ccc2cc(-c3nnc(-c4cccc(Cl)c4)o3)c(=O)oc2c1
[30] CCN(CC)c1ccc2cc(-c3nc(-c4cccs4)no3)c(=O)oc2c1
[31] CCN(CC)c1ccc2cc(-c3nc(-c4ccccc4F)no3)c(=O)oc2c1
[32] O=C(Nc1sc2c(c1-c1nc3ccccc3[nH]1)CCCC2)C1CCCC1
screen / no.,25,26,27,28,29,30,31,32
Nrf2 inh,12%,.,-23%,.,7%,?,?,1%
TCR activator,4%,.,5%,.,.,.,.,0%
A549 tox,1%,.,14%,1%,15%,16%,4%,-2%
Nrf2 activator,-1%,.,2%,5%,5%,8%,7%,6%
ClpP mod,-1%,-1%,-3%,25µM*,28µM*,?,25µM*,10µM*
miR-21 reporter,.,.,.,5%,-2%,-40%,-51%,1%

[33] COc1ccc(-c2cn3cc([N+](=O)[O-])ccc3n2)cc1OC
[34] O=C(Nc1ccc(-n2cc(Cl)cn2)cc1)c1ccncc1
[35] O=C(Nc1ccc(-n2cc(Br)cn2)cc1)c1ccncc1
[36] Cc1cccc(N(CC(O)CN2CCCC2)S(=O)(=O)c2ccccc2)c1 (configuration not stated)
[37] Cc1cccc(N(CC(O)CON=C2c3ccccc3-c3ccccc32)S(C)(=O)=O)c1 (configuration not stated)
[38] CS(=O)(=O)N(CC(O)CON=C1c2ccccc2-c2ccccc21)c1ccc(F)cc1 (configuration not stated)
screen / no.,33,34,35,36,37,38
Nrf2 inh,3.7µM*,-22%,26µM*,-12%,18µM*,8.2µM*
TCR activator,1%,.,3%,0%,.,17%
A549 tox,-1%,1%,-10%,-17%,?,-26%
Nrf2 activator,0%,3%,3%,-1%,3%,0%
ClpP mod,2%,39%,-2%,.,-4%,-4%
miR-21 reporter,-45%,-12%,-5%,-4%,21%,15%

Full records from above.
`O=C(Nc1ccc(-n2cc(Br)cn2)cc1)c1ccncc1` is listed with Nrf2 inh: 26µM*; TCR activator: 3%; A549 tox: -10%; Nrf2 activator: 3%; ClpP mod: -2%; miR-21 reporter: -5%
`Cc1cccc(N(CC(O)CN2CCCC2)S(=O)(=O)c2ccccc2)c1` (configuration not stated) is listed with Nrf2 inh: -12%; TCR activator: 0%; A549 tox: -17%; Nrf2 activator: -1%; ClpP mod: .; miR-21 reporter: -4%

High-throughput results from PubChem BioAssay.
